What all share (format): cell-based
Experiment [1] addresses T1, von Hippel-Lindau disease tumor suppressor/Nicotinamide phosphoribosyltransferase (Mus musculus) (UniProt Q99KQ4+P40338). The experiment is described as follows: PROTAC activity at VHL/NAMPT in mouse CT26 cells assessed as induction of intracellular NAMPT degradation by measuring fold change at 5 uM incubated for 2 hrs by Western blot analysis.
Experiment [2] deals with T1, von Hippel-Lindau disease tumor suppressor/Nicotinamide phosphoribosyltransferase (Mus musculus). The experiment is described as follows: PROTAC activity at VHL/NAMPT in mouse CT26 cells assessed as induction of intracellular NAMPT degradation by measuring fold change at 0.1 uM incubated for 24 hrs by Western blot analysis. (In general: A western blot detects proteins with antibodies after separation by electrophoresis.)

Sequences of proteins named here, by UniProt entry; tags and fusion partners are left off. A change or cut given only in a name is not applied to a line headed by its entry.
UniProt Q99KQ4: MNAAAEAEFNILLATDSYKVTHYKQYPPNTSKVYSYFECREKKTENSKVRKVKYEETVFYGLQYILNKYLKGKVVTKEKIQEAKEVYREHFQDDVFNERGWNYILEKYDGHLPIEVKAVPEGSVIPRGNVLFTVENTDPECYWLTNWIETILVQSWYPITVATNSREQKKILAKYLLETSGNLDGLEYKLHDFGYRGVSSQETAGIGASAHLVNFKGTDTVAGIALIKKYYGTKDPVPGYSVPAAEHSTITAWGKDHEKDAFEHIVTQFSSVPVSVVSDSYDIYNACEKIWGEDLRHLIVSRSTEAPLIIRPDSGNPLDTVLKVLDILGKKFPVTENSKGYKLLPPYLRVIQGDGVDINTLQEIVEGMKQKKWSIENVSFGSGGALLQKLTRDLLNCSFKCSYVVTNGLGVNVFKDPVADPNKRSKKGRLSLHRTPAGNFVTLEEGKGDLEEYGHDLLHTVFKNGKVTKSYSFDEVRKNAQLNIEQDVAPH
UniProt P40338, whole entry, looked up: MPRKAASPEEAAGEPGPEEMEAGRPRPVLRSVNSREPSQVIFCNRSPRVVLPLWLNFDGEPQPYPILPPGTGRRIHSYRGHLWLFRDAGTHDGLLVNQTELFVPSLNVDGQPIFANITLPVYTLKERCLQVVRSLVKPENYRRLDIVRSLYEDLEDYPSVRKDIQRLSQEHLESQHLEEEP

Experiment [3] has the same target. Nature of the experiment: PROTAC activity at VHL/NAMPT in mouse CT26 cells assessed as induction of intracellular NAMPT degradation by measuring fold change at 0.5 uM incubated for 24 hrs by Western blot analysis.
For experiment [4] the target is unchanged. Nature of the experiment: PROTAC activity at VHL/NAMPT in mouse CT26 cells assessed as induction of intracellular NAMPT degradation by measuring fold change at 1 uM incubated for 24 hrs by Western blot analysis.
The target is the same in experiment [5]. Nature of the experiment: PROTAC activity at VHL/NAMPT in mouse CT26 cells assessed as induction of intracellular NAMPT degradation by measuring fold change at 5 uM incubated for 24 hrs by Western blot analysis.
Experiment [6] has the same target. The experiment is described as follows: PROTAC activity at VHL/NAMPT in mouse CT26 cells assessed as induction of intracellular NAMPT degradation by measuring fold change at 5 uM incubated for 6 hrs by Western blot analysis.
The target is the same in experiment [7]. Nature of the experiment: PROTAC activity at VHL/NAMPT in mouse CT26 cells assessed as induction of intracellular NAMPT degradation by measuring fold change at 5 uM incubated for 12 hrs by Western blot analysis.

The structures appear in SMILES notation.

As for `Cc1ncsc1-c1ccc([C@H](C)NC(=O)[C@@H]2C[C@@H](O)CN2C(=O)[C@@H](NC(=O)COCCOCCOCCOCCNC(=O)c2ccc(C(=O)N3CCC(CCCCNC(=O)/C=C/c4cccnc4)CC3)cc2)C(C)(C)C)cc1`, the fold change (FC) in experiment [1] was found to be 1.12; in experiment [2] it was 0.95; in experiment [3], 0.77; in experiment [4], 0.46; in experiment [5] it was 0.16; in experiment [6], 0.72. For the same molecule, in experiment [7], the fold change (FC) stood at 0.48.

These data come from ChEMBL document CHEMBL5506040, “Design of FK866-Based Degraders for Blocking the Nonenzymatic Functions of Nicotinamide Phosphoribosyltransferase” (J Med Chem, 2024).
